Screening data from PubChem BioAssay.
The list is not random: actives were taken first. Their share in the collection is about 2.8%.
PGC1a acetyl inh: modulators of PGC1a acetylation | U2OS PGC1a acetylation, AlphaScreen anti-acetyl-lysine; with virally co-expressed GCN5 acetyltransferase | inhibition, % at 15.6 µM | 0.17% of 350,000 active | AID 651687;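 active = every replicate shows inhibition of at least 40%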;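 note: 0% = neutral control wells and 100% = positive control wells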
PglD DTNB: PglD (C. jejuni) enzyme inhibition; AID 602405; 0.098% of 360,000 active; purified PglD enzyme, DTNB colorimetric CoA detection; inhibition, % at 12.5 µM; in the data active = inhibition above about 16%, passing the limit was not always enough
Yeast UUG start: modulators of yeast start codon fidelity, primary screen, whole organism, S. cerevisiae, single point, plate reader; activity score, % at 18.7 µM; actives 0.13% (n = 350,000); S. cerevisiae UUG-firefly luciferase reporter, luminescence/redox ratio;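 active = replicate mean at a twofold rise or more, about +100% in these data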;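 also: firefly luciferase made from a UUG start codon reports start codon fidelity; reporter light over untreated wells divided by growth signal over untreated wells; some hits fall short of that in this replicate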
E-sel inducer: E-selectin induction on HUVECs | 0.37% of 260,000 active | activation, % at 7.58 µM | HUVEC E-selectin immunofluorescence imaging; normalized: neutral wells 0, TNF-alpha wells 100;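 active = mean E-selectin-positive cell signal at least 10% of the positive control, reached in at least 60% of replicates, without over 20% cell loss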
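System: HUVEC / Compound: single concentration / Signal: immunofluorescence imaging / Read-out: percent E-selectin-positive cells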
esBAF inh: SWI/SNF esBAF complex inhibition; reporter increase, % at 12.5 µM; mouse ES cells, Bmi1-luciferase knock-in reporter, 24 h; 100% = twice the neutral-well signal; 2% of 350,000 active; in the data active = activation above about 40%;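 note: 0% = median of the plate's neutral control wells and 100% = double that signal; a rise in the Bmi1 reporter signal indicates esBAF inhibition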
C2C12 statin: protects C2C12 myotubes from simvastatin toxicity | ATP luminescence, 48 h; scaled: DMSO 0, geranylgeraniol control 100 | rescue of ATP level, % at 7.49 µM | 0.78% of 330,000 active;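 active = mean ATP rescue above about 67%, or every replicate alone reaching that limit, limit read from the data, passing the limit was not always enough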;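 note: myotubes were challenged with 10 µM simvastatin during compound exposure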
The depositor's hits bear a star; · = no result; ! = not confirmed by another sample.

SMILES | PGC1a acetyl inh | PglD DTNB | Yeast UUG start | E-sel inducer | esBAF inh | C2C12 statin
COC(=O)C[C@@H]1CC[C@H]2[C@@H](COc3ccc(NC(=O)c4cc(F)cc(F)c4)cc3C(=O)N2C)O1 | 1.0 | -2.1 | 1.2 | 0.2 | 3.7 | -0.2
CC(C)CC#Cc1cnc2c(c1)C(=O)N([C@H](C)CO)C[C@H](C)[C@H](CN(C)Cc1cncnc1)O2 | 8.7 | 1.0 | -6.6 | -0.4 | 1.5 | 2.3
CN(C)/C=N/C(=S)Nc1cc(Cl)cc(Cl)c1 | -9.0 | -2.2 | -23.2 | · | 2.7 | -81.9
CN(C)/C=N/C(=S)Nc1ccc(Cl)c(Cl)c1 | 10.2 | -4.4 | -13.2 | · | 63.1* | -110.5
CCC(=O)N[C@@H]1CC[C@H](CC(=O)OC)O[C@@H]1CO | -0.9 | -4.8 | 5.1 | -0.2 | 1.7 | 6.2
CCN(CC)C(=O)c1cn(-c2cccc(OC)c2)c(=O)c2ccccc12 | · | -2.7 | -13.8 | 67.3* | 12.1 | -0.9
Cc1ccc2c(C)c(C(=O)N3CCN(Cc4ccc5c(c4)OCO5)CC3)oc2c1C | 0.1 | -6.4 | 6.0 | · | 78.8* | 8.8
COc1ccc(CNc2nc3c(c(=O)n(Cc4ccc(Br)cc4)c(=O)n3C)n2C)cc1 | -8.5 | 3.5 | -0.4 | · | -1.7 | 97.9*
CC(C)NC(=O)N(C)C[C@H]1Oc2ccc(NC(=O)c3ccncc3)cc2CC(=O)N([C@H](C)CO)C[C@H]1C | 1.7 | 11.0 | -0.2 | 3.2 | 0.9 | 6.5
O=C(Nc1ccc(Br)cn1)c1ccc(Cl)s1 | · | 2.3 | -5.1 | · | 60.1* | -26.5
O=C(Nc1nccs1)c1sc2cc(Cl)ccc2c1Cl | 4.2 | -0.7 | -7.0 | · | 57.0* | -2.5
O=C(Nc1nccs1)c1ccc(Cl)s1 | · | 3.2 | -12.9 | · | 52.0* | -8.5
O=C(Nc1ccccn1)c1sc2cc([N+](=O)[O-])ccc2c1Cl | 2.5 | 8.7 | -0.6 | 0.8 | 41.9* | 9.5
Cc1ccnc(NC(=O)c2sc3ccccc3c2Cl)c1 | · | · | · | 0.1 | · | ·
C[C@@H]1CN([C@H](C)CO)C(=O)c2cccc(NC(=O)Nc3cccc4ccccc34)c2O[C@@H]1CN(C)Cc1ccc(-c2ccccc2)cc1 | 1.3 | · | · | -8.6 | 2.8 | ·
C[C@@H]1CCCCO[C@@H](CN(C)C(=O)c2ccncc2)[C@H](C)CN([C@@H](C)CO)C(=O)c2cc(N(C)C)ccc2O1 | 1.2 | -1.8 | 5.1 | 0.0 | -1.1 | 14.2
O=C(NC1CC1)c1sc2ccccc2c1Cl | 11.1 | -0.8 | -12.7 | · | 46.8* | -4.4
O=C(NC1CC1)c1sc2cc(F)ccc2c1Cl | 1.6 | 3.3 | -13.3 | · | 39.0 | -6.3
O=C(NC1CC1)c1sc2cc(Cl)ccc2c1Cl | · | 1.7 | -8.8 | -0.1 | 44.4* | -5.7
O=C(NC(=S)NCCO)c1sc2ccccc2c1Cl | -3.0 | 1.0 | -11.6 | -0.9 | 53.4* | 2.3
O=C(CNC(=O)c1sc2ccccc2c1Cl)NC1CC1 | -3.2 | -4.5 | -21.6 | · | 21.7 | -3.1
COc1ccc(NC(=O)Nc2ccc3c(c2)CC(=O)N([C@@H](C)CO)C[C@@H](C)[C@@H](CN(C)C(=O)Nc2ccc4c(c2)OCO4)O3)cc1 | 2.9 | 3.0 | -5.0 | -0.3 | 1.5 | -3.5
C[C@H](CO)N1C[C@H](C)[C@@H](CN(C)C(=O)c2ccccc2F)Oc2ncc(-c3ccccc3)cc2C1=O | -22.5 | 0.2 | 10.2 | -0.2 | -4.1 | 2.3
Cc1ccc(-n2ncc3c(=O)[nH]c(SC(C)C)nc32)cc1 | -7.8 | 1.7 | -10.3 | 128.4* | -8.9 | -6.1
CCOC(=O)C(C)Sc1nc2c(cnn2-c2ccc(C)cc2)c(=O)[nH]1 (stereo not drawn) | -8.7 | 5.7 | -8.9 | · | -8.6 | 96.6*
SMILES | PGC1a acetyl inh | PglD DTNB | Yeast UUG start | E-sel inducer | esBAF inh | C2C12 statin
COC(=O)C(C)Sc1nc2c(cnn2-c2ccccc2)c(=O)[nH]1 (stereo not drawn) | · | -2.3 | -9.1 | · | 0.7 | -18.0
CCCNC(=O)[C@@]1(c2ccc([N+](=O)[O-])cc2)CC(=O)N(CC23CC4CC(CC(C4)C2)C3)[C@@H]1c1ccc(CO)cc1I | 4.8 | 7.1 | -7.0 | · | · | ·
C[C@@H](NC(=O)C[C@@H]1C[C@@H]2c3cc(NC(=O)C4CCOCC4)ccc3O[C@@H]2[C@@H](CO)O1)c1ccccc1 | 2.6 | -0.7 | · | 0.4 | 1.1 | 4.5
CCOc1ccc2nc(NC(=O)C3CCCO3)sc2c1 (stereo not drawn) | -13.4 | -4.6 | -17.7 | -2.6 | 39.0 | -4.7
CCOc1ccc2nc(NC(=O)C34CC5CC(CC(NC(C)=O)(C5)C3)C4)sc2c1 | · | -0.6 | -4.7 | 0.0 | 57.6* | -2.1
CCOc1ccc2nc(NC(=O)NC3CCCCC3)sc2c1 | 9.2 | 1.7 | 1.4 | 6.3 | 34.2* | ·
COc1ccc2nc(NC(=O)C34CC5CC(CC(NC(C)=O)(C5)C3)C4)sc2c1 | -1.5 | 0.7 | -5.4 | 1.6 | 26.8 | -18.9
C[C@@H]1CCCCO[C@@H](CN(C)C(=O)Nc2ccc(F)cc2)[C@H](C)CN([C@@H](C)CO)C(=O)c2cc(NC(=O)C3CCCCC3)ccc2O1 | -13.4 | -1.2 | -9.4 | 0.0 | 3.4 | ·
COc1cccc(-c2ccc(C3[C@@H]4CN(Cc5cccc(F)c5)C[C@H]3N4)cc2)c1 (stereo partly drawn) | 97.5*! | · | · | 0.1 | · | ·
COc1cc(CN2C[C@@H]3N[C@H](C2)C3c2ccc(-c3ccccc3C)cc2)cc(OC)c1 (stereo partly drawn) | 104.6*! | · | · | -0.7 | · | ·
COc1ccc(-c2ccc(C3[C@@H]4CN(Cc5cccc(OC)c5)C[C@H]3N4)cc2)cc1 (stereo partly drawn) | 0.1 | · | · | -0.2 | · | ·
CCOc1ccccc1C(=O)N(C)Cc1cc2ccccc2[nH]c1=O | -9.8 | 3.7 | 4.0 | · | 7.8 | -9.4
CCOc1cc(C(=O)N(C)Cc2cc3ccccc3[nH]c2=O)cc(OCC)c1OCC | -7.7 | 0.2 | 0.9 | · | -1.9 | 97.8*
CC(C)N(Cc1cc2ccccc2[nH]c1=O)C(=O)c1cccnc1 | -3.7 | · | · | · | 0.6 | 88.4*
COc1ccc(CNC(=O)C[C@H]2CC[C@@H]3[C@@H](COc4ccc(NC(=O)C(C)C)cc4C(=O)N3C)O2)cc1 | -5.7 | -4.3 | · | 0.0 | 2.7 | -8.7
CCC(=O)N[C@@H]1CC[C@@H](CCn2cc(-c3cccc(OC)c3)nn2)O[C@@H]1CO | 1.5 | 1.8 | -5.5 | 1.7 | 5.1 | -3.6
Fc1ccccc1CSc1ncnc2c1ncn2C1CCCO1 (stereo not drawn) | -3.9 | -4.6 | -8.1 | -0.1 | 68.8* | 0.3
CCCCSc1ncnc2c1ncn2C1CCCCO1 (stereo not drawn) | -0.5 | 2.4 | -31.8 | 0.1 | 15.8 | 2.5
CC(=O)N(C)C[C@@H]1Oc2cc(-c3ccc(C#N)cc3)ccc2S(=O)(=O)N([C@H](C)CO)C[C@H]1C | 9.8 | 1.9 | 10.0 | 0.0 | 0.1 | -8.7
CN(C)CC#Cc1ccc([C@@H]2[C@@H](CO)N3CCCCN(C(=O)C4CCCC4)C[C@@H]23)cc1 | 6.3 | 1.4 | 16.6 | · | · | ·
CC(=O)Nc1c(C(=O)O)[nH]c2ccccc12 | -9.6 | -5.0 | -2.9 | · | -1.8 | 99.2*

Laid out differently: entries from further up
structure	PGC1a acetyl inh	PglD DTNB	Yeast UUG start	E-sel inducer	esBAF inh	C2C12 statin
COc1cccc(-c2ccc(C3[C@@H]4CN(Cc5cccc(F)c5)C[C@H]3N4)cc2)c1 (stereo partly drawn)	97.5*!	·	·	0.1	·	·
COc1cc(CN2C[C@@H]3N[C@H](C2)C3c2ccc(-c3ccccc3C)cc2)cc(OC)c1 (stereo partly drawn)	104.6*!	·	·	-0.7	·	·
COc1ccc(-c2ccc(C3[C@@H]4CN(Cc5cccc(OC)c5)C[C@H]3N4)cc2)cc1 (stereo partly drawn)	0.1	·	·	-0.2	·	·
CCOc1ccccc1C(=O)N(C)Cc1cc2ccccc2[nH]c1=O	-9.8	3.7	4.0	·	7.8	-9.4
CCOc1cc(C(=O)N(C)Cc2cc3ccccc3[nH]c2=O)cc(OCC)c1OCC	-7.7	0.2	0.9	·	-1.9	97.8*
CC(C)N(Cc1cc2ccccc2[nH]c1=O)C(=O)c1cccnc1	-3.7	·	·	·	0.6	88.4*
